# From PubChem BioAssay AID1510 (The Scripps Research Institute Molecular Screening Center, 2009)
# Protein sequences, listed by entry. Tags and fused reporters are not part of them. Lines headed by an entry give the natural chain unless they say otherwise; changes in a name come on top.
# UniProt O95977: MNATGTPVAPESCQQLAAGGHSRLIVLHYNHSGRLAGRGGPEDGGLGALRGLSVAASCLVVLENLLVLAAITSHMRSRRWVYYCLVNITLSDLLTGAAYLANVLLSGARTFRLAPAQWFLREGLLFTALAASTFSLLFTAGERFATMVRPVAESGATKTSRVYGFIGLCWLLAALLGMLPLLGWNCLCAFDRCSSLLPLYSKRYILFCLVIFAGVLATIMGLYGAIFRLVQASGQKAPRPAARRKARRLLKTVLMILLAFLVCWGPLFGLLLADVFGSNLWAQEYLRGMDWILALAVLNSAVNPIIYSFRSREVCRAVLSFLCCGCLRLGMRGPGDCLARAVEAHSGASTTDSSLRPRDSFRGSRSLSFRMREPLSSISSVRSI
# Where “and” joins values, the source holds several entries; their conditions need not be identical. Identical values can stand only once. This is a selection; strong and weak results do not stand in their true shares. Calls of active or inactive are those of the source. Cut-off read from the data, not from the text of the source: active = inhibition above about 29%; inactive = the rest.
# Molecular target: Sphingosine 1-phosphate receptor 4 (Homo sapiens) (UniProt O95977)
# Assay: blockers of human S1P4 receptor – cell-based, primary screen (AID 1510);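 note: 0% = wells stimulated with agonist and 100% = vehicle wells without agonist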
# Details: S1P4-expressing cells, antagonist mode, reporter read-out; at 4.98 µM; active compounds read high
row,SMILES,inhibition
1,c1nnnn1CCn1cnnn1,inactive: -5.14%
2,O=P(Nc1ccccn1)(c1ccc(Br)cc1)c1ccc(Br)cc1,inactive: -2.92%
3,O=P(Nc1nc2ccccc2s1)(c1ccccc1)c1ccccc1,inactive: -6.01%
4,O=[As](O)(c1ccccc1)c1ccc(O)cc1,inactive: 2.18%
5,O=[N+]([O-])c1ncn(CCn2cnc([N+](=O)[O-])n2)n1,inactive: -15.4%
6,CC(=O)NC(SC(=S)N(C)C)C(Cl)(Cl)Cl (stereo unspecified),inactive: 8.56%
7,O=C(OC1CN2CCC1CC2)c1cccc(Cl)c1 (stereo unspecified),inactive: 2.3%
8,C(Cc1nn[nH]n1)Cc1nn[nH]n1,inactive: -1.33%
9,Nc1ccc([As](=O)(O)c2ccc([N+](=O)[O-])cc2)cc1,inactive: 0.15%
10,CCOC(=O)NC(Sc1ccccc1)C(Cl)(Cl)Cl (stereo unspecified),inactive: 5.37%
11,Cc1ccc(NP(=O)(Oc2cccc(C)c2)Oc2cccc(C)c2)nc1,inactive: 0.67%
12,c1ccc(-c2nn[nH]n2)c(-c2nn[nH]n2)c1,inactive: -4.56%
13,CCNC(=S)/N=C(\N)N[N+](=O)[O-],inactive: 6.74%
14,O=C(NC1CCS(=O)(=O)C1)NP(=S)(Oc1ccccc1)Oc1ccccc1 (stereo unspecified),inactive: 2.62%
15,CCC(=O)N1C2C3N(C(=O)CC)C1C1N(C(=O)CC)C(C(N1C(=O)CC)N3C(=O)CC)N2C(=O)CC,inactive: -9.81%
16,Cc1ccc(OP(=O)(Nc2ccccn2)Oc2ccc(C)cc2)cc1,inactive: -10.5%
17,CC(=O)NC(SC(=S)N(CC(C)C)CC(C)C)C(Cl)(Cl)Cl (stereo unspecified),inactive: 7.56%
18,COC(=O)c1cc2c(s1)N=C(c1ccccc1)N(C)P2(=O)N1CCOCC1 (stereo unspecified),inactive: 10.5%
19,O=c1c2cc([N+](=O)[O-])ccc2[nH]c2c([N+](=O)[O-])cc([N+](=O)[O-])cc12,inactive: -3.81%
20,CN(C)C(=O)Oc1noc2ccccc12,inactive: 14.2%
21,Cc1ccccc1OP(=O)(Nc1ccccn1)Oc1ccccc1C,inactive: 5.08%

row,SMILES,inhibition
1,CCOc1ccc(C2=NCC(CBr)S2)cc1 (stereo unspecified),inactive: -8.74%
2,O=P1(Nc2nc3ccc(Cl)cc3s2)COc2ccccc2O1 (stereo unspecified),inactive: -4.89%
3,CC(C)(C)C(=O)NC(Sc1ccccc1)C(Cl)(Cl)Cl (stereo unspecified),inactive: -8.69%
4,CC(=O)Nc1ccc(Oc2c([N+](=O)[O-])cc([N+](=O)[O-])cc2[N+](=O)[O-])cc1,inactive: -7.41%
5,CC(=O)Nc1ccc([As](=O)(O)O)c(O)c1,inactive: 5.67%
6,Cc1ccc(N/C(=N/P(=O)(N2CCOCC2)N2CCOCC2)N2CCOCC2)cc1,inactive: -13.3%
7,NC(=O)c1cc([N+](=O)[O-])cc([N+](=O)[O-])c1N,inactive: -5.92%
8,CN1CCCC(OC(=O)C(c2ccccc2)c2ccccc2)C1 (stereo unspecified),inactive: -6.64%
9,Clc1ccc(Cl)c(NC2=NCC(CBr)S2)c1 (stereo unspecified),inactive: 2.5%
10,Cc1ccc(OP(=O)(Nc2nccs2)Oc2ccc(C)cc2)cc1,inactive: -0.07%
11,COc1ccccc1OP(=O)(Nc1ccc(C)cn1)Oc1ccccc1OC,inactive: -8.77%
12,O=C(NC(Sc1ccncn1)C(Cl)(Cl)Cl)c1ccccc1 (stereo unspecified),inactive: 0.46%
13,Oc1ccccc1CNc1ccccn1,inactive: 5.87%
14,Nc1cc(N)c2nonc2c1[N+](=O)[O-],inactive: -10.3%
15,CC(C)CC(=O)NC(Sc1ccc(Cl)cc1)C(Cl)(Cl)Cl (stereo unspecified),inactive: -9.26%
16,O=P(Nc1nc2ccc(Cl)cc2s1)(c1ccccc1)c1ccccc1,inactive: -6.18%
17,CC(=O)Nc1ccc([As](=O)(O)O)cc1,inactive: 7.88%
18,O=C(O)c1ccccc1[As](=O)(O)O,inactive: 4.05%
19,Cc1ccc(NP(=O)(Oc2ccccc2F)Oc2ccccc2F)nc1,inactive: -24.5%
20,Cc1cc(SC(NC(=O)c2ccc(F)cc2)C(Cl)(Cl)Cl)ncn1 (stereo unspecified),inactive: -17.5%
21,CCOP(=O)(Nc1ccccc1)OCC,inactive: -11.8% and inactive: 14.2%

row,SMILES,inhibition
1,Nc1cccc2ccc([As](=O)(O)O)cc12,inactive: -1.99%
2,CCN(N=Nc1nonc1N)c1nonc1N,inactive: -14.6%
3,O=C(Nc1cc([As](=O)(O)O)ccc1O)c1ccccc1,inactive: -0.71%
4,O=[N+]([O-])c1ncn(CCn2ncnc2[N+](=O)[O-])n1,inactive: 1.41%
5,CC(C)(C)C(=O)NC(Sc1ccncn1)C(Cl)(Cl)Cl (stereo unspecified),inactive: 17.2%
6,O=C(O)CNc1ccc([As](=O)(O)O)cc1,inactive: -1.57%
7,O=[N+]([O-])c1cccc(NC2=NCC(CBr)S2)c1 (stereo unspecified),inactive: -6.75%
8,COc1ccc(C2=NCC(CBr)S2)cc1 (stereo unspecified),inactive: 12.4%
9,CCc1nc2c(n1)c1c(non1O)c1c2no[n+]1[O-],inactive: 11.8%
10,O=[N+]([O-])c1cc([N+](=O)[O-])c(CCNc2ccccc2)c([N+](=O)[O-])c1,inactive: -1.93%
11,Cc1ccc(NP(=O)(Oc2ccccc2)Oc2ccccc2)nc1,inactive: -17.1%
12,O=[N+]([O-])c1cccc2n[nH]nc12,inactive: 1.5%
13,CC(=O)N1C2C3N(C(C)=O)C1C1N(C(C)=O)C(C(N1C(C)=O)N3C(C)=O)N2C(C)=O,inactive: 2.07%
14,CCN(/C(=N/P(=O)(N1CCOCC1)N1CCOCC1)N1CCOCC1)c1ccc(OC)cc1,inactive: -17.3%
15,C[N+]1=C2C=CC=CC=C2SC12C([N+](=O)[O-])=CC([N+](=O)[O-])=C[C-]2[N+](=O)[O-] (stereo unspecified),active: 43.9%
16,Nc1ccc([As](=O)(O)c2ccc(N)cc2)cc1,inactive: -4.57%
17,CC1CCN(C(=O)Oc2c(Cl)cc(Cl)c3cccnc23)CC1,inactive: -20.7%
18,CN(C)C(=O)OCCc1n(C)cc[n+]1C,inactive: -19.6%
19,CC(C)=N/N=C(\N)N[N+](=O)[O-],inactive: -6.43%
